Assay results: publication PMC9377102, “Toxicity and toxicokinetics of the ethanol extract of Zuojin formula” (BMC Complementary Medicine and Therapies, 2022)

Experiment: Toxicokinetics test in the satellite groups (UPLC-MS/MS of rat plasma)
Type: in vivo
Conditions: rats after oral TAZF; detection limit
Method: SD rats (5 ~ 6 weeks, 3/group/sex) were randomly allocated to three treatment groups and given the same dosage as those in the repeated toxicity experiment for 28 days. […] Carbamazepine was chosen as the internal standard (IS). The blood samples were centrifuged to obtain plasma. Then, 300 μL of acetonitrile containing 40 ng of IS was added to 100 μL of plasma. After vortexing for 1 min, the mixture was centrifuged at 17,000 rpm for 15 min at 4 °C. The supernatant of each sample was injected into a UPLC–MS/MS system for determination. The injection volume was 1 μL. UPLC–MS analysis was performed on a Thermo Fisher Scientific Ultimate 3000 UPLC system (San Jose, USA) and an API 4000 QTRAP mass spectrometer (Foster City, USA) equipped with an ESI source. The mobile phase consisted of 2 solvents: (A) water containing 0.1% formic acid and (B) 100% acetonitrile. For MS, multiple reaction monitoring (MRM) in positive ion mode was used as the scanning mode for the main components and IS in the plasma samples. The dwell time (DT), collision energy (CE), quadrupole 1 pre-rod bias (Q1) and quadrupole 3 pre-rod bias (Q3) are listed in Table 3.

Substance: evodiamine
- Level in plasma: < 0.5 ng/mL
